Article PMC4331045

Target: reaction centre-light-harvesting 1-PufX complex (RC–LH1–PufX), monomeric core complex (Rba. sphaeroides (endogenous in strain 2.4.1 and its mutants)) (UniProt P0C0Y7)
Experiment: sucrose density gradient ultracentrifugation; membranes solubilised in 3% β-DDM, layered on a discontinuous 20-25% sucrose gradient with 20 mM HEPES and 0.03% β-DDM, 27,000 rpm (90,000 ×g) 40 h; bands of LH2, core monomer and core dimer quantified by densitometry (ImageJ) and absorption spectra; carotenoid strains grown photosynthetically or semi-aerobically; core dimer to monomers

## reaction centre-light-harvesting 1-PufX complex (RC–LH1–PufX), monomeric core complex (from UniProt P0C0Y7 1-260; P0C0Y8 1-282; P0C0Y9 1-308; P0C0X9 1-58; P0C0Y1 1-49; P13402 1-82)
  percent of complexes in the dimeric state (ΔcrtA strain, spheroidene): 82%
  percent of complexes in the dimeric state (ΔcrtB strain, no carotenoid; ΔcrtI strain, phytoene): 42%
  stoichiometry N: 2
